From PubChem BioAssay AID624297 (National Center for Advancing Translational Sciences (NCATS), 2012) come the findings set out here.

The structures appear in SMILES notation. This is a selection; strong and weak results do not stand in their true shares. Inconclusive results are not listed. Calls of active or inactive are those of the source. Calls follow the shape of the dose curve; as a rule, active = well fitted activation curve with a large enough effect; inconclusive = small, poorly fitted or top-dose-only effect; inactive = no such curve, though single readings can be large or run the other way.

This assay can be described thus: A quantitative high throughput screen for small molecules that induce DNA re-replication in SW480 colon adenocarcinoma cells. Also: % of control where 0% means no effect; nearly all actives have a fitted effect of over 55% in size. Particulars: Hoechst DNA content imaging, 48 h; at 46.1 µM (top of the series).
For the compound `CC(=O)c1ccc(N2CC2c2ccncc2)cc1` (configuration not stated), the re-replication activation is inactive: -1.6%.

In the case of `CP(=O)(Nc1ccc(Cl)cc1)Oc1ccc(F)cc1` (configuration not stated), the re-replication activation was inactive: -2.3%.
